Experiments:
PIK3CB = PIK3CB (UniProt P42338); assay: Inhibition of PIK3CB Kinase Activity
PIK3CG = PIK3CG (UniProt P48736); assay: Inhibition of PIK3CG Kinase Activity

The chains behind the UniProt entries cited, without tags or fusion partners. Where a name states a change or a piece, a line headed by the entry shows the natural chain unless it says otherwise.
UniProt P42338: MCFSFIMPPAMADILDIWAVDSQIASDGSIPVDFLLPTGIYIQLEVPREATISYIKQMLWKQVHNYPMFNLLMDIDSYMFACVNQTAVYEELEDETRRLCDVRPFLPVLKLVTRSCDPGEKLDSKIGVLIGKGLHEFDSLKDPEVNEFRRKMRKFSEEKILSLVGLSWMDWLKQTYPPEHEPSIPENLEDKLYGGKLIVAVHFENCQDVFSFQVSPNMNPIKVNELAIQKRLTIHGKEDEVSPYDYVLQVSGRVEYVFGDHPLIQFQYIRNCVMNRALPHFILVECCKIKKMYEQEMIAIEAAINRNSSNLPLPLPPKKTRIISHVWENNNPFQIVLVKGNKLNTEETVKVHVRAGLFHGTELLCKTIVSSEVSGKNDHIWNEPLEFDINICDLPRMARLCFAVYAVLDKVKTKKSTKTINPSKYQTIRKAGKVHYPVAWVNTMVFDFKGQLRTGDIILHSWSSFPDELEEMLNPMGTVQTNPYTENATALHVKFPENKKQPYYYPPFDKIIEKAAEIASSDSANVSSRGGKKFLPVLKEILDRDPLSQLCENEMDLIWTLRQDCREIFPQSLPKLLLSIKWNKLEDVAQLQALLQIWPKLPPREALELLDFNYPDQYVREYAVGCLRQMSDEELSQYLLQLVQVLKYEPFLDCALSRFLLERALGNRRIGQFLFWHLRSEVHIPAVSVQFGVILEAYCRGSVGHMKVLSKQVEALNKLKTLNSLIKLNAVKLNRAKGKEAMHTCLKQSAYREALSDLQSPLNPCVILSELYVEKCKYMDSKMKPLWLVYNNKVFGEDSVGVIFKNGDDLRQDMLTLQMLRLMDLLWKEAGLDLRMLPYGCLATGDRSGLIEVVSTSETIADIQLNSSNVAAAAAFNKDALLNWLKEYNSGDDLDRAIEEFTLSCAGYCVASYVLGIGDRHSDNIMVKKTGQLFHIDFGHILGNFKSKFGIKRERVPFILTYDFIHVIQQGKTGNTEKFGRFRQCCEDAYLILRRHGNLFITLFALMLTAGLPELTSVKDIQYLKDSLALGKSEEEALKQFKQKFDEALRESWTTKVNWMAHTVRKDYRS
UniProt P48736: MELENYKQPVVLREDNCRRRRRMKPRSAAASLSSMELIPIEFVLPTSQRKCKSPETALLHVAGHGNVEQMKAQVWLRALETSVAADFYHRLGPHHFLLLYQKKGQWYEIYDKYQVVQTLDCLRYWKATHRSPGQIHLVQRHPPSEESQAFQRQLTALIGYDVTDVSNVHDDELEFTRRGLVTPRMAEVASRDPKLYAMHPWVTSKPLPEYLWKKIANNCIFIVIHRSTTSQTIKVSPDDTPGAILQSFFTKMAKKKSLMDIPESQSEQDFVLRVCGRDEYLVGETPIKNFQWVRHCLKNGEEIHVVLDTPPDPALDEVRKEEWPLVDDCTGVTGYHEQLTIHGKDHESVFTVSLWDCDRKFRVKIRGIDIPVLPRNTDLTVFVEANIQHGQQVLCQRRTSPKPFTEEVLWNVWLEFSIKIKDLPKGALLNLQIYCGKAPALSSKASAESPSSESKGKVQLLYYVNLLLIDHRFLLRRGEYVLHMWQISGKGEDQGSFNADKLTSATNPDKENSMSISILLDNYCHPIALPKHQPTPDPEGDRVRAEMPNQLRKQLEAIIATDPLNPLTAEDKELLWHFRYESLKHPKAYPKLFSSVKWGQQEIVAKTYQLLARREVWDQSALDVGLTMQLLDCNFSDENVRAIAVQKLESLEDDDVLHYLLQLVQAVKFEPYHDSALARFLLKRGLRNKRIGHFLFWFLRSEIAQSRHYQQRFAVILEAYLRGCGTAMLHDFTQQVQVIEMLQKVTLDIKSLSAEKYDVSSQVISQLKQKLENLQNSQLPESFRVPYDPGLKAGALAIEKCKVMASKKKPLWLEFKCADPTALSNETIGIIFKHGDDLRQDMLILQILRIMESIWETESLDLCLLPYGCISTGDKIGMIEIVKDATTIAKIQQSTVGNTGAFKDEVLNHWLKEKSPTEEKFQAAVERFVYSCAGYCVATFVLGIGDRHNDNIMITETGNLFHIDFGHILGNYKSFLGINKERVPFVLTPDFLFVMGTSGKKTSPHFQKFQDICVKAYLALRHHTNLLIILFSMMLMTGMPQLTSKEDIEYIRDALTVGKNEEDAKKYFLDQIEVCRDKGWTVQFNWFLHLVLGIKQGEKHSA

## O=c1cc(N2CCOCC2)oc2c(-c3ccccc3)cccc12
PIK3CB
  IC50: 0.34 µM
PIK3CG
  IC50: 1.6 µM
